These results are taken from patent US11518783B2, “Peptides having tetrahedral mimicking groups as inhibitors of rhomboid proteases” (priority 2016, dated 2022).

Protein sequences, listed by entry. Tags and fused reporters are not part of them. Lines headed by an entry give the natural chain unless they say otherwise; changes in a name come on top.
UniProt P09391: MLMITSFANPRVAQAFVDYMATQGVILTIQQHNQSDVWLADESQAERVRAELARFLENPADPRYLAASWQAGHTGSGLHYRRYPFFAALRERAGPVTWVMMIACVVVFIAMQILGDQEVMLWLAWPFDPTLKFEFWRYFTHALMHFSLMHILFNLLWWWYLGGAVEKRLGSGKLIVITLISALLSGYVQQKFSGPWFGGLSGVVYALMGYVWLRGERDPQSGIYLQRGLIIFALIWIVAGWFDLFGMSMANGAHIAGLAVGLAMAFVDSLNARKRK

The target in this assay is GlpG (Escherichia coli, UniProt P09391). The conditions noted are these: living E. coli cells, liquid culture, no preincubation.

As for Ac-VRMA-B(OH)2, the “EC50 for inhibition of endogenous GlpG in E. coli cells” value is listed as “sub-micro molar”.
